This note sets out measurements from patent US20210278391A1, “COMPOSITIONS AND METHODS FOR TREATING CARDIOVASCULAR AND METABOLIC CONDITIONS” (The Regents of the University of California, priority 2017, published 2021).

The test system of this test is pressure-overloaded mouse heart. The test is described as follows: TAC heart failure model with preexisting dysfunction, BT2 from 2 weeks post-TAC for 6 weeks, echocardiography and survival. The class given is in vivo. As to conditions: week 8 post-TAC. As to the method: In mice, transverse aortic constriction (TAC) was performed as described (Lee et al. (2011) Circulation Research 109:1332-1341) in anesthetized (pentobarbital 60 mg/kg, IP) and ventilated mice (age 12-14 weeks) to induce hypertrophy and heart failure. After left anterolateral thoracotomy with blunt dissection through the intercostal muscles, aortic constriction was induced by ligating the transverse aorta around a 27½-gauge blunt needle using 6-0 silk suture. The needle was subsequently removed. Sham-operated mice underwent a similar surgical procedure without constriction of the aorta. All mice were maintained in the same environment with regular lab chow and water ad libitum. At the end of the experiments, animals were euthanized and the hearts and lungs were removed and weighed. Hearts were dissected and tissues were either immediately immersed into 4% buffered formaldehyde or quickly frozen in liquid nitrogen for further experiments.

For the compound `O=C(O)c1sc2cc(Cl)ccc2c1Cl` [BT2, 3,6-dichlorobenzo[b]thiophene-2-carboxylic acid], the “cardiac hypertrophy (heart weight and tibia length ratio, hypertrophic markers)” value was “without affecting”.
